Measured values taken from patent publication US20200369754A1 (published 2020).

Biological target: T1, Tau peptide A6940 (biotin (bound via biotin to a streptavidin biosensor in the Octet assay; position of the biotin not stated))
T1 peptide: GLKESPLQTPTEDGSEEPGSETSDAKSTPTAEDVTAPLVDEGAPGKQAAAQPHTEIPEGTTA
Experiment: ITC

B1: CBTAU-28.1 wild type (antibody, V domains shown)
VH: QVQLQQSGAEVKKPGESLKISCEASGYSFTNYWIGWVRQMPGKGLEWMGIIYPGDSDTRYSPPFQGQVTITADRSITTAYLEWSSLKASDTAMYYCARVGRPSKGGWFDPWGQGTLVTVSS
VL: DIQMTQSPDSLAVSLGERATINCESSQTLLYSSNEKNYLAWYQQKPGQPPKLLISWASTPESGVPDRFSGSGSGTSFTLTISSLQAEDVAVYYCQQYYNSPYTFGQGTRLEIK
Kd: 880 nM
